Data: ChEMBL document CHEMBL1136711, “Synthesis and SAR of bicyclic heteroaryl hydroxamic acid MMP and TACE inhibitors” (Bioorg Med Chem Lett, 2003)

Target: Collagenase 3 (Homo sapiens, UniProt P45452)
Experiment: Inhibitory activity against matrix metalloprotease 13 (MMP-13).

**Q.** For `CC#CCOc1ccc(S(=O)(=O)N(C)c2c(C(=O)NO)cnc3c2c(C)nn3C)cc1`, which IC50 is on record?
**A.** 100 nM
